Values of other authors as cited in article PMC3479662 (Journal of medicinal chemistry, 2012).

Legend:
A2AAR = details: read-out: Affinity Ki, A2A; human unless noted; ref Kim et al.[40]; cited from earlier work
A3AR = details: read-out: Affinity Ki, A3; human unless noted; ref de Zwaart et al.[38]; cited from earlier work

SMILES | Ki (A2AAR) | Ki (A3AR)
NCCNC(=O)[C@H]1O[C@@H](n2cnc3c(N)ncnc32)[C@H](O)[C@@H]1O [Compound 11] | 46.1 µM | –
Nc1ncnc2c1ncn2[C@@H]1O[C@H](C(=O)NC2CC2)[C@@H](O)[C@H]1O [Compound 16] | – | 0.108 µM
